# Source: PubChem BioAssay AID1554 (Broad Institute, 2009)
# The entries are a selection whose mix differs from that of the whole data set. Active and inactive are the calls of the source. Rule as the data show it: active = inhibition above about 50%; inconclusive = no clear call, values can overlap the other calls; inactive = below that.
# Test: PubChem AID 1554
# Conditions: BJeLR (HRASV12) viability, CellTiter-Glo ATP luminescence, 48 h; active compounds read high; concentration not given here
row,Structure (SMILES),inhibition
1,CN1CCC(Nc2ccc(F)c(Cl)c2)CC1,inactive: -3.25%
2,CCOc1ncccc1C(=O)NCC1(N2CCOCC2)CCCCC1,inactive: -0.92%
3,O=C(O)C1(Nc2ccccc2)CCN(Cc2ccccc2)CC1,inactive: -2.29%
4,CC(C)(C)OC(=O)N1CCC(Nc2ccccc2)CC1,inactive: 7.93%
5,CCCOc1ccc(C(=O)NCC2(N(C)C)CCCCC2)cc1,inactive: 0.507%
6,COc1cccc(C(=O)N(c2cc(C)cc(C)c2)C2CCN(C(=O)OC(C)(C)C)CC2)c1,inactive: 1.33%
7,COc1cc(OC)cc(C(=O)NCC2(N3CCOCC3)CCCCC2)c1,inactive: -3.65%
8,CCC(CO)(C(=O)OC1CN2CCC1CC2)c1ccccc1 (centres undefined),inactive: 0.581%
9,CN1CCC(Nc2ccc(Cl)cc2)CC1,inactive: -2.69%
10,CCCOc1ccc(C)cc1CN(CCCl)CCCl,inactive: 4.73%
11,COc1cc(OC)cc(C(=O)NCC2(N3CCCCC3)CCCCC2)c1,inactive: -3.74%
12,Fc1ccccc1NC1CCN(Cc2ccccc2)CC1,inactive: -4.66%
13,Cc1ccc(C(=O)NCC2(N3CCCCC3)CCCCC2)o1,inactive: -8.86%
14,CCN1CCC(Nc2cccc(F)c2)CC1,inactive: 0.788%
15,CN(C)c1ccc(C(=O)NCC2(N3CCCCC3)CCCCC2)cc1,inactive: 10.1%
16,N#Cc1ccc(C(=O)NCC2(N3CCCCC3)CCCCC2)cc1,inactive: -2.44%
17,CC(C)(C)OC(=O)N1CCC(N(C(=O)c2ccccc2)c2ccc(Cl)cc2)CC1,inactive: -13%
18,CN(C)C1(CNC(=O)c2cccc(C#N)c2)CCCCC1,inactive: 5.66%
19,CCCN1CCC(Nc2cc(OC)cc(OC)c2)CC1,inactive: 0.611%
20,c1ccc(CN2CCC(Nc3ccccc3)CC2)cc1,inactive: 4.57%

row,Structure (SMILES),inhibition
1,COc1ccc(C(=O)NCC2(N3CCOCC3)CCCCC2)cc1OC,inactive: 1.32%
2,CCOC(=O)N1CCC(Nc2ccc(C)cc2)CC1,inactive: 1.61%
3,N/C(=N\O)c1c(N)no[n+]1[O-],inactive: 12.3%
4,CCc1cc(C(=O)NCC2(N3CCCCC3)CCCCC2)sc1C,inactive: 5.7%
5,O=C(OC1CN2CCC1CC2)C1c2ccccc2C=Cc2ccccc21 (centres undefined),inactive: 1.85%
6,CC(C)c1ccc(NC2CCN(C(=O)OC(C)(C)C)CC2)cc1,inactive: -0.369%
7,CN(C)c1cccc(C(=O)NCC2(N3CCCCC3)CCCCC2)c1,inactive: -3.29%
8,COc1ccc(CN(CCCl)CCCl)cc1Cl,inactive: -10.3%
9,COc1cc(OC)c(C(=O)NCC2(N(C)C)CCCCC2)cc1OC,inactive: -1.92%
10,CN1CCC(Nc2cccc(F)c2)CC1,inactive: 15.5%
11,CCCOc1ccc(C(=O)NCC2(N(C)C)CCCCC2)cc1OC,inactive: -7.47%
12,O=C(NCC1(N2CCCCC2)CCCCC1)c1ccc(OC(F)F)cc1,inactive: -2.13%
13,N#CC1(Nc2ccccc2)CCN(CCc2ccccc2)CC1,inactive: 1.71%
14,CCN1CCC(Nc2ccc(Cl)cc2)CC1,inactive: -3.13%
15,O=C(NCC1(N2CCCCC2)CCCCC1)c1cccc([N+](=O)[O-])c1,inactive: 6.39%
16,O=C(NCC1(N2CCCCC2)CCCCC1)c1cccc(C(F)(F)F)c1,inactive: 3.46%
17,O=C(NCC1(N2CCOCC2)CCCCC1)c1cc(=O)[nH]c2ccccc12,inactive: 4.51%
18,COc1cc(C(=O)NCC2(N3CCCCC3)CCCCC2)ccc1OC(F)F,inactive: 3.94%
19,COc1ccc(NC2CCN(C(=O)OC(C)(C)C)CC2)cc1,inactive: -8.23%
20,CN1CCN(CCOC(=O)C(O)(c2ccccc2)c2ccccc2)CC1,inactive: 4.21%

row,Structure (SMILES),inhibition
1,CCOc1ccc(C)cc1CN(CCCl)CCCl,inactive: 6%
2,CCOC(=O)N1CCC(Nc2ccc(F)cc2)CC1,inactive: -2.78%
3,COc1ccc(NC2CCN(CCc3ccccc3)CC2)c(OC)c1,inactive: -7.23%
4,O=C(NCC1(N2CCCCC2)CCCCC1)c1ccc(F)cc1,inactive: -7.54%
5,Cc1ccc(OCC(C)C)c(CN(CCCl)CCCl)c1,inactive: 7.97%
6,CCOC(=O)N1CCC(Nc2cccc(C)c2)CC1,inactive: -3.91%
7,COc1cc(C(=O)NCC2(N(C)C)CCCCC2)ccc1OC(F)F,inactive: -4.8%
8,CC(C)(C)OC(=O)N1CCC(N(C(=O)c2ccccc2)c2ccc(F)cc2)CC1,inactive: 8.36%
9,COc1ccc(C(=O)NCC2(N3CCCCC3)CCCCC2)c(OC)c1OC,inactive: -11%
10,COc1ccc(C(=O)NCC2(N3CCCCC3)CCCCC2)cc1,inactive: -1.46%
11,O=C(NCC1(N2CCCCC2)CCCCC1)c1cccs1,inactive: 6.22%
12,O=C(NCC1(N2CCCCC2)CCCCC1)c1ccc(=O)[nH]c1,inactive: -11.8%
13,CSc1ccccc1C(=O)NCC1(N2CCCCC2)CCCCC1,inactive: -1.89%
14,Cc1cc(C)cc(N(C(=O)c2ccccc2)C2CCN(C(=O)OC(C)(C)C)CC2)c1,inactive: 2.56%
15,O=C(NCC1(N2CCCCC2)CCCCC1)c1ccc(Cl)nc1,inactive: -5.9%
16,O=C(NCC1(N2CCOCC2)CCCCC1)c1cc2ccccc2o1,inactive: -0.409%
17,N#CC1(Nc2ccccc2)CCN(Cc2ccccc2)CC1,inactive: 1.04%
18,O=C(OC1CN2CCC1CC2)C1c2ccccc2Oc2ccccc21 (centres undefined),inactive: 15.8%
19,CCOC(=O)N1CCC(Nc2ccc(OC)cc2)CC1,inactive: -9.44%
